Reference: PubChem BioAssay AID504842 (National Center for Advancing Translational Sciences (NCATS), 2011)
The entries are a selection whose mix differs from that of the whole data set. Calls of active or inactive are those of the source. The call rests on the fitted dose curve; in most records, active means well fitted inhibition curve with a large enough effect; inconclusive means small, poorly fitted or top-dose-only effect; inactive means flat fitted curve, though single readings scatter.

What follows are compounds tested on Chaperonin Mm-Cpn (Methanococcus maripaludis) (assay: Inhibitors of TCP-1 ring complex (TRiC) of Methanococcus maripaludis (MmCpn): qHTS). Details: purified Mm-Cpn ATPase, ADP Transcreener TR-FRET; at 76.9 µM (top of the series).
Excerpt: The eukaryotic chaperonin TRiC (for TCP-1 ring complex) is an essential and conserved chaperone required for the folding and activation of 10-15% of the proteins encoded by the human genome. […] The TRiC complex consist of two stacked 7-9 membered rings, each containing a central cavity. Substrates are folded within the cavity in an ATP-dependent manner. TRiC is a complex of eight different, essential proteins. As each of the genes encoding the eight subunits is essential for cell viability and no protocol has been developed to over-express this enzyme to high levels. That is why several groups studying the TRiC chaperonin have turned to the archaeal homolog of TRiC, Methanococcus maripaludis (Mm-CPN), and have used this enzyme as a model system for the study of the type II chaperonin family. Small molecule inhibitors of the Mm-CPN enzyme would be extremely useful to study the mechanism of chaperonin activity. Importantly, TRiC and Mm-CPN both require ATP hydrolysis for function. Furthermore, the ATP binding sites are highly conserved among these type II chaperonins. This provides us with an easy, well tested and straightforward assay to identify inhibitors of chaperonin activity. The Mm-CPN assay was developed in 1536-well plate format using the HTRF Transcreener ADP assay kit (Cisbio, Bedford, MA). This assay applied the time resolved fluorescence resonance energy transfer (TR-FRET) principle. ATP in the presence of Mm-CPN is converted to ADP + Pi. An antibody labeled with Eu3+-Cryptate specific and bound to ADP labeled with […] (d2) competes with the unlabeled ADP generated by Mm-CPN. The resulting TR-FRET signal is inversely proportional to the concentration of ADP in the sample. In this assay a reduction in TR-FRET signal is observed with ATP turnover. NIH Chemical Genomics Center [NCGC] NIH Molecular Libraries Probe Centers Network [MLPCN] MLPCN Grant: DA030554-01A1 Assay Submitter (PI): Judith Frydman, Stanford University
Purified Mm-CPN was supplied by the laboratory of Dr. Judith Frydman. Protein samples were stored at -80C as single use aliquots. Protein was thawed in ambient temperature water bath and placed on ice once thawed. Buffer was prepared fresh day of screen. The buffer composition below was used to prepare the working solution of the Mm-CPN protein and ATP substrate. The buffer is comprised of 30 mM TRIS pH 7.4, 100mM KCl, 5mM MgCl2, and 1mM DTT. A final concentration of 25nM Mm-CPN and 10uM ATP per well were used in the screen. Instructions according to the manufacturer were followed for the ADP Transcreener kit. Used 1536 well Greiner white, medium binding (MB), solid bottom plates. Plates were read on the PerkinElmer EnVision plate reader using Excitation = 320 nm and Emission = […], 665 nm. Protocol- 1.Dispense 1.5ul per well of working [Mm-CPN] = 50nM (or 75 ng / well) 2.Spin plate at 1000 rpm for 30 seconds 3.23nl of compound transferred per well 4.Incubate at 37degC for 10 minutes 5.Dispense 1.5ul per well of working [ATP] = 20uM 6.Incubate at 37degC for 30 minutes 7.Dispense 3ul per well of Anti-ADP Cryptate / ADP-d2 mix (prepared as instructed by Cisbio) 8.Incubate at ambient for 30 minutes 9.Read using EnVision
Further: nearly all actives have a fitted effect of over 80% in size.
On the % scale 0 is the no-effect control and ±100 the full control effect.

Compound	activity, negative = inhibition
Cc1ccc(NCCc2c([N+](=O)[O-])cc([N+](=O)[O-])cc2[N+](=O)[O-])cc1	inactive: -6.73%
Nc1cccc2c([As](=O)(O)O)cccc12	inactive: -8.61%
CCCOP(=S)(Nc1nc(N)cc(=O)[nH]1)OCCC	inactive: 2.91%
CCOP(=O)(Nc1cccc2ccccc12)OCC	inactive: -3.64%
COc1cc(C2NCCC3(OCCO3)C2(C)C)cc(OC)c1OC (centres undefined)	inactive: 2.92%
O=C(OC1CN2CCC1CC2)c1ccc(Cl)cc1 (centres undefined)	inactive: 0.811%
CS(=O)(=O)c1ccc(Cl)c(NC(=O)COC(=O)C(O)(c2ccccc2)c2ccccc2)c1	inactive: 2.99%
COc1cc(C(=O)NCC2(N3CCOCC3)CCCCC2)cc(Cl)c1OC(C)C	inactive: 0.365%
O=[As](O)(O)c1cccnc1	inactive: -1.43%
O=[As](O)(c1cccc(O)c1)c1cccc(O)c1	inactive: 1.05%
NC(=O)Nc1ccc([As](=O)(O)O)cc1	inactive: 2.28%
CCOP1(=S)c2c(C)nn(CCC#N)c2N=C(c2ccc(F)cc2)N1C (centres undefined)	inactive: 0.798%
CN(C(=O)Cc1ccccc1)[C@@H]1CC[C@]2(CCCO2)C[C@H]1N1CCCC1	inactive: 2.41%
N#CCCN(C(=O)COC(=O)C(O)(c1ccccc1)c1ccccc1)c1ccc(F)cc1	inactive: 1.83%
O=[N+]([O-])c1ccc2c(c1)nnn2O	inactive: 0.0351%
O=P(Nc1nccs1)(Oc1ccccc1)Oc1ccccc1	inactive: 2.29%
CCOP1(=S)c2c(C)nn(CCC#N)c2N=C(c2ccccc2F)N1C (centres undefined)	inactive: -1.55%
CS(=O)(=O)c1cc([N+](=O)[O-])c2no[n+]([O-])c2c1	inactive: -1.97%
Nc1ccccc1[As](=O)(O)c1ccccc1	inactive: 0.51%
O=C(O)COc1ccc([As](=O)(O)O)cc1[N+](=O)[O-]	inactive: 0.455%
O=P1(Nc2ncccn2)COc2ccccc2OC1	inactive: -1.25%
Nc1cccc([As](=O)(O)c2ccccc2)c1	inactive: 1.92%

Compound	activity, negative = inhibition
O=P1(Nc2ccc(Br)cn2)COc2ccccc2OC1	inactive: 1.47%
NS(=O)(=O)c1cccc(NC(=O)COC(=O)C(O)(c2ccccc2)c2ccccc2)c1	inactive: 0.556%
Cc1ccc(OCC(=O)OC2CN3CCC2CC3)cc1 (centres undefined)	inactive: 0.475%
O=[As](O)(c1cccs1)c1cccs1	inactive: 0.401%
CC1CCC(C(C)C)C(OP(=O)(Nc2ccccn2)c2ccccc2)C1 (centres undefined)	inactive: -1.16%
Cc1ccc(C(=O)OC2CN3CCC2CC3)cc1 (centres undefined)	inactive: -2.3%
Cc1nn(-c2ccccc2)c2c1P(=O)(N1CCOCC1)N(C)C(c1ccccc1)=N2 (centres undefined)	inactive: -0.936%
CN(C)C1(CNC(=O)c2ccc(S(C)(=O)=O)cc2)CCCCC1	inactive: -0.958%
O=C(/C=C/c1ccccc1)OC1CN2CCC1CC2 (centres undefined)	inactive: -2.57%
COc1ccccc1CNC(=O)COC(=O)C(O)(c1ccccc1)c1ccccc1	inactive: 4.25%
CC(C)/C=N\N=C(\N)N[N+](=O)[O-]	inactive: 0.37%
CN(C(=O)Cc1ccc(Cl)c(Cl)c1)[C@@H]1CCCC[C@H]1N1CCCC1	inactive: -6.11%
O=[As](O)(c1ccccc1Br)c1ccccc1Br	inactive: -2.63%
CCOP(=O)(NC(=NC(C)c1ccccc1)NC(C)c1ccccc1)OCC (centres undefined)	inactive: 0.528%
O=P1(Nc2ccccn2)COc2ccccc2OC1	inactive: 0.0467%
CCC1=CC2Cc3nc4ccc(Cl)cc4c(N)c3C(C1)C2 (centres undefined)	inactive: -0.188%
CCOP(=O)(Nc1ccc(C)cn1)OCC	inactive: 1.23%
CC(C)(C)C(=O)NC(Sc1ncccn1)C(Cl)(Cl)Cl (centres undefined)	inactive: 1.15%
Clc1n[nH]nc1-c1nn[nH][15n]1	inactive: 1.45%
O=C(OC1CN2CCC1CC2)c1cccc([N+](=O)[O-])c1 (centres undefined)	inactive: 0.187%
CCOC(=O)c1ccc(NC(=O)C(C)(CCl)SC)cc1 (centres undefined)	inactive: -2.69%
CCC(C)N(CC(C)C)C(=S)SC(NC(C)=O)C(Cl)(Cl)Cl (centres undefined)	inactive: -1.63%

Compound	activity, negative = inhibition
COP1(=S)c2c(C)nn(CCC#N)c2N=C(c2ccc(F)cc2)N1C (centres undefined)	inactive: 0.943%
O=C(Nc1ccncc1[N+](=O)[O-])c1ccc([N+](=O)[O-])cc1[N+](=O)[O-]	inactive: 0.413%
O=C(COc1ccccc1)OC1CN2CCC1CC2 (centres undefined)	inactive: -1.13%
CCOC(=O)Nc1cccc([As](=O)(O)O)c1	inactive: -3.69%
O=P(Nc1ccccn1)(c1cccc2ccccc12)c1cccc2ccccc12	inactive: -3.43%
Cc1cc(SC(NC=O)C(Cl)(Cl)Cl)ncn1 (centres undefined)	inactive: -0.424%
O=[N+]([O-])c1ccc(Nc2ccc(Oc3ccc([N+](=O)[O-])cc3[N+](=O)[O-])cc2)c([N+](=O)[O-])c1	inactive: 0.652%
CCOC(=O)Nc1ccc([As](=O)(O)O)c(O)c1	inactive: 0.665%
Cc1cc(SC(NC(=O)c2ccccc2)C(Cl)(Cl)Cl)nc(C(C)C)n1 (centres undefined)	inactive: -2.23%
CCCCOc1ccc(C(=O)NCC2(N3CCCCC3)CCCCC2)cc1OC	inactive: 1.96%
ClCCSc1nnc(-c2cccnc2)o1	inactive: 1.97%
CC(C)c1ccc(OP(=O)(Nc2ccccn2)Oc2ccccc2F)cc1 (centres undefined)	inactive: 0.231%
O=[N+]([O-])c1cc([N+](=O)[O-])c(-c2ccn[nH]2)s1	inactive: -5.99%
CCN(CC)C(=S)SC(NC=O)C(Cl)(Cl)Cl (centres undefined)	inactive: -2.87%
CC(C)NC(=O)NP(=O)(Oc1ccccc1)Oc1ccccc1	inactive: 0.152%
COc1cc(C(=O)NCC2(N3CCOCC3)CCCCC2)ccc1OCC(C)C	inactive: -0.216%
C[As](=O)(O)c1cccc(C(=O)O)c1	inactive: -23.1%
O=[As](O)(c1ccc(O)cc1)c1ccccc1O	inactive: 1.02%
Cc1ccc(OP(=O)(Nc2ccc([N+](=O)[O-])cn2)Oc2ccc(C)cc2)cc1	inactive: -1.68%
Cc1ccc2nc3c(c(C)c2c1)CC(C(Cl)Cl)S3 (centres undefined)	inactive: -5.74%
